Columns and labels:
recombinant human PI3Kα = recombinant human PI3Kα (Homo sapiens (Human), UniProt P42336); assay: Inhibitory activity on PI3K kinase (ADP-Glo Kinase Assay)
recombinant human PI3Kδ = recombinant human PI3Kδ (Homo sapiens (Human), UniProt O00329); assay: as above

Protein sequences, listed by entry. Tags and fused reporters are not part of them. Lines headed by an entry give the natural chain unless they say otherwise; changes in a name come on top.
UniProt P42336, whole entry: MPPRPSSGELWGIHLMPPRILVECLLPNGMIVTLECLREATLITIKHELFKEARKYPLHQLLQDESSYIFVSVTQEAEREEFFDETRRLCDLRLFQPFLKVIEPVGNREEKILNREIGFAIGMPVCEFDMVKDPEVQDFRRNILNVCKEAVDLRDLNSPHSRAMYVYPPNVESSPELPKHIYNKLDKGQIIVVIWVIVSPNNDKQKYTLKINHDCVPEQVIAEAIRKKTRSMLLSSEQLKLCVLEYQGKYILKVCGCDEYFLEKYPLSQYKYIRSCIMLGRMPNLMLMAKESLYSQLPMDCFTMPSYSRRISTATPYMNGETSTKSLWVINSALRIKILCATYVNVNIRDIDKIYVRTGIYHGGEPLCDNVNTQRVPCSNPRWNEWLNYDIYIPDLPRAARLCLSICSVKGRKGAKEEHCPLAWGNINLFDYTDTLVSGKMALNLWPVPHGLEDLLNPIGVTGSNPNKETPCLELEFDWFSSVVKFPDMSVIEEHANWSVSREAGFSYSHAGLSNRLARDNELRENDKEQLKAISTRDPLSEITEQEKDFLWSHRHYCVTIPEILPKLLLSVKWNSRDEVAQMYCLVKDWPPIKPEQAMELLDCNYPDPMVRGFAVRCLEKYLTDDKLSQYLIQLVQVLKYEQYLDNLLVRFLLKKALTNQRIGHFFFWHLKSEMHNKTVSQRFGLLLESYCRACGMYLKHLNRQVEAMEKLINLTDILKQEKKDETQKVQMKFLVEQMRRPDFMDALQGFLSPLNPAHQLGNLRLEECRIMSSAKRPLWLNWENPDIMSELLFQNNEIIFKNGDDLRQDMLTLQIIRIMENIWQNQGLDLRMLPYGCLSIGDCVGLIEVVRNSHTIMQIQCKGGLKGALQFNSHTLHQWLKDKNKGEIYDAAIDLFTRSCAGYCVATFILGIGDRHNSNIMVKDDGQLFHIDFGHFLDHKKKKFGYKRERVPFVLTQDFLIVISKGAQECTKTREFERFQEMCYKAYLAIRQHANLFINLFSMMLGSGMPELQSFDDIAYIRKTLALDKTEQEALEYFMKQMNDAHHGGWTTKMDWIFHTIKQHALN
UniProt O00329: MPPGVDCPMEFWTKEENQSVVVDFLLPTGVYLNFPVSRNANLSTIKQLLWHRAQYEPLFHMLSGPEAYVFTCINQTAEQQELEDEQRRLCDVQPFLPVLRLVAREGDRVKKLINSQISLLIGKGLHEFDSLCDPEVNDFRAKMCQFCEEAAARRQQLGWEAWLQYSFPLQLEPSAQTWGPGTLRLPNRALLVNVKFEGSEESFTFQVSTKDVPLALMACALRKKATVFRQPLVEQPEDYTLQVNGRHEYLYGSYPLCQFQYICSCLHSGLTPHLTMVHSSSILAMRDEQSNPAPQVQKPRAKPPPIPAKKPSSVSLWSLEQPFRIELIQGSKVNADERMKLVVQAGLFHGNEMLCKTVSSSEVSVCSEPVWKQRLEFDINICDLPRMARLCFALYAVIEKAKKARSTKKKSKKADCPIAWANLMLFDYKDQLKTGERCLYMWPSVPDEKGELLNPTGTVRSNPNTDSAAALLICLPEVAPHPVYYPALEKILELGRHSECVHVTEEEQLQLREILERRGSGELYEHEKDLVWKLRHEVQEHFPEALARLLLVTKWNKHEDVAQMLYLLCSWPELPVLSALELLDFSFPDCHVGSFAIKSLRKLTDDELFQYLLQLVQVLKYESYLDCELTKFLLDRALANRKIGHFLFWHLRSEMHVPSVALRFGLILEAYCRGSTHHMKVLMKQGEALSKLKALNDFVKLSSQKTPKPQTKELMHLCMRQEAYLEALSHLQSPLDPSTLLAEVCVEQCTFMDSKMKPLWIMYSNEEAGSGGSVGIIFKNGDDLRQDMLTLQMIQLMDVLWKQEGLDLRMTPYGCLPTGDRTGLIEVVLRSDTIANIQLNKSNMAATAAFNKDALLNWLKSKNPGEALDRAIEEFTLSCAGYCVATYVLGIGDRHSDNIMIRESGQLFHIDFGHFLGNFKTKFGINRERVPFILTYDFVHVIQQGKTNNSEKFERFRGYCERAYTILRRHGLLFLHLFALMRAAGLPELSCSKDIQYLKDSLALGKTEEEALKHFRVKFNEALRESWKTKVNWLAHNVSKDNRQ

C[C@H](NC(=O)c1c(N)nn2cccnc12)c1cc2cccc(C#Cc3cnn(C)c3)c2c(=O)n1-c1ccccc1 [IPI-549, reference compound]
IC50 (recombinant human PI3Kα): 99.1 nM
IC50 (recombinant human PI3Kδ): 170 nM

Reference: patent US12447151B2, “Alkyne derivative, preparation method for same, and uses thereof” (ZHEJIANG HISUN PHARMACEUTICAL CO., LTD., priority 2019, dated 2025)
